{
  "source": "patent US20200308162A1",
  "about": "“DRUGS AND COMPOSITIONS FOR OCULAR DELIVERY” (Graybug Vision, Inc., priority 2017, published 2020)",
  "key": {"[1]": {"assay": "In vitro drug release kinetics of Timolol prodrug microparticles in PBS and 1% Tween 20 (pH 7.4) at 37° C.", "type": "physicochemical", "experimental": "In vitro drug release kinetics were evaluated in a release medium composed of PBS and 1% Tween 20 (pH 7.4). Briefly, 10 mg of particles was suspended in 4 mL of the release medium The particle suspension was incubated on an orbital shaker at 150 rpm at 37° C. At various time points, 3 mL of release media was collected, and the suspension was replenished with 3 mL of fresh release media. Collected release samples were frozen and stored at −80° C. until analysis for drug content. The collected samples were filtered through a 0.2 μm syringe filter and analyzed by RP-HPLC. FIG. 17-FIG. 22 illustrate the total and parent Timolol release profile for the microparticles encapsulating bis-prodrugs of Timolol of Table 11."}, "[2]": {"assay": "Stability of Timolol prodrugs in PBS via HPLC", "type": "physicochemical", "settings": "PBS (100% PBS)", "experimental": "Each point on the graph is the retention time of Compound 50, parent Timolol, and 4 breakdown products at day 0, 1, 2, 3, 4, or 5 as measured via HPLC.\nThe stability of Compound 51 was measured in 100% serum (FIG. 27A), 50% serum and 50% PBS (FIG. 27B), and 100% PBS (FIG. 27C) via HPLC. Each point on the graph is the retention time of Compound 51, parent Timolol, and 4 breakdown products at day 0, 1, 2, 3, 4, or 5 as measured. […] The concentration of the breakdown product with a retention time of 5.454 minutes was higher than the concentration of parent Timolol (retention time=4.4 minutes).\nThe stability of Compound 52 was measured in PBS (FIG. 28) and the stability of Compound 53 was measured in PBS (FIG. 29)."}},
  "note": "“Also recorded” adds a separate entry of the source.",
  "data": [
    {"substance": "Timolol-Bis-N,O-Glycolic acid-Acetyl-PLA (n = 4) [Compound 50]", "values": [
      {"measurement": "parent Timolol released relative to total release of prodrug and intermediates", "setting": "[1]; PBS and 1% Tween 20 (pH 7.4), 37° C.", "result": "primarily as native parent Timolol; also recorded: primarily the Timolol parent drug"},
      {"measurement": "correlation between total drug release and parent Timolol release", "setting": "[1]; in vitro", "result": "high and correlates well and best correlation"},
      {"measurement": "linear (4-month) drug release", "setting": "[1]; in vitro", "result": "exhibited linear drug release; also recorded: Linear 4-month drug release was only achieved with Compound 50; also recorded: only compound to consistently achieve linear 4-month drug release"},
      {"measurement": "extent of linear release profile", "setting": "[1]; parent Timolol as primary compound released, FIG. 22", "result": "> 140", "unit": "days"},
      {"measurement": "stability / breakdown into parent Timolol and breakdown products", "setting": "[2]", "result": "breaks down over the course of 5 days; also recorded: primarily breaks downs into the Timolol parent drug; also recorded: produced high concentrations of Timolol"}
    ]}
  ]
}
